Experimental data published in PubChem BioAssay AID720511 (Broad Institute, 2013).
Only a part is listed here, and it is no random draw. Calls of active or inactive are those of the source.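 The calls were made as follows: active = mean added fluorescence quench of at least 8% versus neutral control, with both replicates also reaching 8%; inconclusive = only one of the mean or replicate conditions met; inactive = mean below 8% and not both replicates reaching 8%.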

experiment: F508del CFTR correction, initial screen, CFBE line, single point (AID 720511); details: CFBE cells, YFP halide quenching, at 7.58 µM, hits give high values, % fluorescence drop versus neutral controls, stimulated with forskolin plus potentiator P3;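 also: cells transiently co-express mutant CFTR-F508del with the halide-sensitive YFP; corrector assay measuring rescue of mutant channel to the surface after 24 h compound exposure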

SMILES | activity (quench increase)
CC(=O)NC(SC(=S)N(C)C)C(Cl)(Cl)Cl (stereo not given) | inactive: -3.73%
CN(C)C1(CNC(=O)c2ccc(S(C)(=O)=O)cc2)CCCCC1 | inactive: -1.9%
O=C(/C=C/c1ccccc1)OC1CN2CCC1CC2 (stereo not given) | inactive: 2.78%
CCCC1OP(=O)(Nc2ccccc2)OCC1CC (stereo not given) | inactive: -0.614%
CC1CCC(C(C)C)C(OP(=O)(Nc2ccccn2)c2ccccc2)C1 (stereo not given) | inactive: -1.41%
Cc1ccc(C(=O)OC2CN3CCC2CC3)cc1 (stereo not given) | inactive: 1.05%
Nc1cccc([As](=O)(O)c2ccccc2)c1 | inactive: -0.78%
O=[As](O)(c1cccs1)c1cccs1 | inactive: -1.15%
NS(=O)(=O)c1cccc(NC(=O)COC(=O)C(O)(c2ccccc2)c2ccccc2)c1 | inactive: -1.33%
Cc1ccc(S(=O)(=O)N(CCCN)CCCc2c(C)nc(N)[nH]c2=O)cc1 | inactive: 3.17%
O=P1(N(CCCl)CCCl)NCCC(C(F)(F)F)O1 (stereo not given) | inactive: 5.23%
CC(C)(C)C(=O)NC(Sc1ncccn1)C(Cl)(Cl)Cl (stereo not given) | inactive: 2.99%
CCC1=CC2Cc3nc4ccc(Cl)cc4c(N)c3C(C1)C2 (stereo not given) | inactive: -11%
CCOP(=O)(NC(=NC(C)c1ccccc1)NC(C)c1ccccc1)OCC (stereo not given) | inactive: -2.62%
CCOP(=O)(Nc1ccc(C)cn1)OCC | inactive: -2.41%
CN(CCCl)Cc1cc(Cl)c(NC2=NCCN2)c(Cl)c1 | inactive: 0.668%
CC(C)/C=N\N=C(\N)N[N+](=O)[O-] | inactive: 5.88%
CN(C(=O)Cc1ccc(Cl)c(Cl)c1)[C@@H]1CCCC[C@H]1N1CCCC1 | inactive: 0.917%
CN(C(=O)Cc1ccc(Cl)c(Cl)c1)C1CCCC[C@@H]1N1CCCC1 (stereo not given in full) | inactive: 1.46%
COc1ccccc1CNC(=O)COC(=O)C(O)(c1ccccc1)c1ccccc1 | inactive: 0.507%
O=[As](O)(c1cccc(O)c1)c1cccc(O)c1 | inactive: -1.02%
O=C(OC1CN2CCC1CC2)c1ccc(Cl)cc1 (stereo not given) | inactive: 0.241%
O=[As](O)(O)c1cccnc1 | inactive: 1.57%
COc1cc(C(=O)NCC2(N3CCOCC3)CCCCC2)cc(Cl)c1OC(C)C | inactive: 1.94%

SMILES | activity (quench increase)
CS(=O)(=O)c1ccc(Cl)c(NC(=O)COC(=O)C(O)(c2ccccc2)c2ccccc2)c1 | inactive: -0.559%
Nc1cccc2c([As](=O)(O)O)cccc12 | inactive: 0.539%
CCCOP(=S)(Nc1nc(N)cc(=O)[nH]1)OCCC | inactive: -2.29%
Nc1ccccc1[As](=O)(O)c1ccccc1 | inactive: -2.45%
O=C(O)COc1ccc([As](=O)(O)O)cc1[N+](=O)[O-] | inactive: -0.05%
CCOP1(=S)c2c(C)nn(CCC#N)c2N=C(c2ccccc2F)N1C (stereo not given) | inactive: 0.632%
O=P(Nc1nccs1)(Oc1ccccc1)Oc1ccccc1 | inactive: 2.91%
N#CCCN(C(=O)COC(=O)C(O)(c1ccccc1)c1ccccc1)c1ccc(F)cc1 | inactive: 0.958%
CN(C(=O)Cc1ccccc1)[C@@H]1CC[C@]2(CCCO2)C[C@H]1N1CCCC1 | inactive: -2.6%
CCOP1(=S)c2c(C)nn(CCC#N)c2N=C(c2ccc(F)cc2)N1C (stereo not given) | inactive: -0.358%
CN(C)C(=O)c1cc([N+](=O)[O-])cc2c1-c1c(cc([N+](=O)[O-])cc1[N+](=O)[O-])C2=O | inactive: -7.35%
CN(C(=O)Cc1ccc(Cl)c(Cl)c1)[C@H]1CC[C@@]2(CCCO2)C[C@@H]1N1CCCC1 | inactive: 6.97%
NC(=O)Nc1ccc([As](=O)(O)O)cc1 | inactive: 0.426%
[N-]=[N+]=NC1CCCCC1NC(=O)c1cc([N+](=O)[O-])cc([N+](=O)[O-])c1 (stereo not given) | inactive: -0.955%
Cc1ccc(OP(=O)(Nc2ccc([N+](=O)[O-])cn2)Oc2ccc(C)cc2)cc1 | inactive: -1.83%
Cc1ccc2nc3c(c(C)c2c1)CC(C(Cl)Cl)S3 (stereo not given) | inactive: 0.706%
O=[As](O)(c1ccc(O)cc1)c1ccccc1O | inactive: -2.77%
C[As](=O)(O)c1cccc(C(=O)O)c1 | inactive: 3.41%
COc1cc(C(=O)NCC2(N3CCOCC3)CCCCC2)ccc1OCC(C)C | inactive: 3.88%
CC(C)NC(=O)NP(=O)(Oc1ccccc1)Oc1ccccc1 | inactive: -4.31%
O=C(OC1CN2CCC1CC2)c1cccc2[nH]cnc12 (stereo not given) | inactive: 0.145%
COC(=O)C1(C)COP(=O)(N2CCCCCC2)OC1 (stereo not given) | inactive: 2.46%
CC(C)c1ccc(OP(=O)(Nc2ccccn2)Oc2ccccc2F)cc1 (stereo not given) | inactive: 0.475%
COc1ccc(CN2/C(=N\P(=O)(Oc3ccccc3)Oc3ccccc3)Cc3ccccc3C2C2CC2)cc1 (stereo not given) | inactive: -0.77%

SMILES | activity (quench increase)
O=P1(N(CCCl)CCCl)Nc2ccccc2N1 | inactive: 0.642%
O=P1(N(CCCl)CCCl)OCCCN1CCCl (stereo not given) | inactive: -0.963%
COc1ccc2nc(NP(=O)(c3ccccc3)c3ccccc3)sc2c1 | inactive: -2.19%
COc1cc(I)ccc1[As](=O)(O)O | inactive: -0.629%
Cc1c2c(nc3ccccc13)SC(C(Cl)Cl)C2 (stereo not given) | inactive: -4.38%
Cc1cc(=O)[nH]c(N[N+](=O)[O-])n1 | inactive: 1.36%
O=[N+]([O-])c1cc(Oc2ccc([N+](=O)[O-])cc2C(F)(F)F)cc([N+](=O)[O-])c1 | inactive: 3.64%
COc1ccc(N/C(=N/P(=O)(N2CCOCC2)N2CCOCC2)N2CCOCC2)cc1 | inactive: -3.92%
O=C(O)C(=O)c1ccc(N(CCCl)CCCl)cc1 | inactive: 0.895%
O=C(Nc1ccncc1[N+](=O)[O-])c1ccc([N+](=O)[O-])cc1[N+](=O)[O-] | inactive: -1.92%
COP1(=S)c2c(C)nn(CCC#N)c2N=C(c2ccc(F)cc2)N1C (stereo not given) | inactive: 0.616%
COC(=O)C1(C)COP(=O)(N2CCCC2)OC1 (stereo not given) | inactive: 1.19%
O=C(OC1CN2CCC1CC2)c1cccc([N+](=O)[O-])c1 (stereo not given) | inactive: -0.205%
CCOC(=O)c1ccc(NC(=O)C(C)(CCl)SC)cc1 (stereo not given) | inactive: 3.66%
COP(=O)(OC)N1CC1c1ccccc1 (stereo not given) | inactive: -2.36%
CCCCOc1ccc(C(=O)NCC2(N3CCCCC3)CCCCC2)cc1OC | inactive: -1.95%
CCOC(=O)Nc1ccc([As](=O)(O)O)c(O)c1 | inactive: -2.65%
O=C(O)C(O)c1ccc(N(CCCl)CCCl)cc1 (stereo not given) | inactive: 4.72%
O=P(Nc1ccccn1)(c1cccc2ccccc12)c1cccc2ccccc12 | inactive: -3.08%
Cc1cc(SC(NC=O)C(Cl)(Cl)Cl)ncn1 (stereo not given) | inactive: -1.69%
O=[N+]([O-])c1ccc(Nc2ccc(Oc3ccc([N+](=O)[O-])cc3[N+](=O)[O-])cc2)c([N+](=O)[O-])c1 | inactive: -1.42%
CCOC(=O)Nc1cccc([As](=O)(O)O)c1 | inactive: 2.6%
